Measured values reported in US11702401B2, “Compounds and methods of use” (Medivation Technologies LLC, priority 2014, dated 2023).

System: p-SMAD2
Test: p-SMAD2 inhibition, Western blot, TGFβ-stimulated MDA-MB-231 cells
Type: cell-based
Conditions: TGFβ 2 ng/mL, triplicate; for Average p-SMAD2 inhibition @ 0.1 μM (% Inh) / inhibition at 0.1 µM: 0.1 μM compound; for Average p-SMAD2 inhibition @ 0.5 μM (% Inh) / inhibition at 0.5 µM: 0.5 μM compound; for inhibition at 0.1 µM / inhibition at 0.5 µM: Homo sapiens; for inhibition at 0.1 µM: read-out: Average p-SMAD2 inhibition @ 0.1 μM (% Inh); for inhibition at 0.5 µM: read-out: Average p-SMAD2 inhibition @ 0.5 μM (% Inh)

| Structure (SMILES) | Average p-SMAD2 inhibition @ 0.1 μM (% Inh) | Average p-SMAD2 inhibition @ 0.5 μM (% Inh) | inhibition at 0.1 µM | inhibition at 0.5 µM |
| --- | --- | --- | --- | --- |
| C=C(C)c1cnc(-c2cc(Cl)ccc2F)cc1Nc1ccncc1C(=O)N[C@H](C)CO [7b, (2R)-4-[[2-(5-chloro-2-fluoro-phenyl)-5-isopropenyl-4-pyridyl]amino]-N-(2-hydroxy-1-methyl-ethyl)pyridine-3-carboxamide] | 36.33 % Inh | 78.67 % Inh |  |  |
| COc1cnc(-c2cc(Cl)ccc2F)cc1Nc1ccncc1C(=O)NC[C@H](C)O (single isomer, unassigned) [13a] |  |  | 59% | 93.7% |
| CC(=O)NCCNC(=O)c1cnccc1Nc1cc(-c2cc(Cl)ccc2F)ncc1C(C)C [compound 14, N-(2-acetamidoethyl)-4-[[2-(5-chloro-2-fluoro-phenyl)-5-isopropyl-4-pyridyl]amino]pyridine-3-carboxamide] | 45.00 % Inh |  |  |  |
| C=C(C)c1cnc(-c2cc(Cl)ccc2F)cc1Nc1ccncc1C(=O)N[C@@H](C)CO [7a, (S)-4-(2-(5-chloro-2-fluorophenyl)-5-(prop-1-en-2-yl)pyridin-4-ylamino)-N-(1-hydroxypropan-2-yl)nicotinamide] | 74.33 % Inh | 99.33 % Inh |  |  |
| C=C(C)c1cnc(-c2cc(Cl)ccc2F)cc1Nc1ccncc1C(=O)N[C@@H](CC)CO (single isomer, unassigned) [24a] | 17.00 % Inh |  |  |  |
| CC(C)c1cnc(-c2cc(Cl)ccc2F)cc1Nc1ccncc1C(=O)NC[C@H](C)O [2a, (S)-4-[[2-(5-chloro-2-fluoro-phenyl)-5-isopropyl-4-pyridyl]amino]-N-(2-hydroxypropyl)pyridine-3-carboxamide] |  |  | 26.3% | 77.7% |
| C=C(C)c1cnc(-c2cc(Cl)ccc2F)cc1Nc1ccncc1C(=O)NCC(C)O (single isomer, unassigned) [3a] |  | 78.00 % Inh |  |  |
| CC(C)c1cnc(-c2cc(Cl)ccc2F)cc1Nc1ccncc1C(=O)NCCN [compound 19, N-(2-aminoethyl)-4-[[2-(5-chloro-2-fluoro-phenyl)-5-isopropyl-4-pyridyl]amino]pyridine-3-carboxamide] |  | 93.00 % Inh |  |  |
| CC(C)c1cnc(-c2cc(Cl)ccc2F)cc1Nc1ccncc1C(=O)NC(CO)CO [compound 22, 4-[[2-(5-chloro-2-fluoro-phenyl)-5-isopropyl-4-pyridyl]amino]-N-[2-hydroxy-1-(hydroxymethyl)ethyl]pyridine-3-carboxamide] | 50.00 % Inh |  |  |  |
| CCc1cnc(-c2cc(Cl)ccc2F)cc1Nc1ccncc1C(=O)NC[C@H](C)O (single isomer, unassigned) [11a] |  |  | 44.7% | 96% |
| C=C(C)c1cnc(-c2cc(Cl)ccc2F)cc1Nc1ccncc1C(=O)NCCO [compound 26, 4-[[2-(5-chloro-2-fluoro-phenyl)-5-isopropenyl-4-pyridyl]amino]-N-(2-hydroxyethyl)pyridine-3-carboxamide] | 64.00 % Inh | 89.00 % Inh |  |  |
| CC(C)c1cnc(-c2cc(Cl)ccc2F)cc1Nc1ncncc1C(=O)NC[C@H](C)O (single isomer, unassigned) [12a] |  |  | 64.3% | 93% |
